## Antibody variant affinities, Ab-14 heavy chain, assay 1

Reference: Engelhart et al. 2022, doi:10.1038/s41597-022-01779-4. File: FLAb, binding data.

Target peptide (SARS-CoV-2 spike, HR2 region): PDVDLGDISGINAS

Ab-14 is the parent antibody, in scFv form: VH, then the linker GGGGSGGGGSGGGGS, then VL. The light chain is unchanged in all variants.
VH: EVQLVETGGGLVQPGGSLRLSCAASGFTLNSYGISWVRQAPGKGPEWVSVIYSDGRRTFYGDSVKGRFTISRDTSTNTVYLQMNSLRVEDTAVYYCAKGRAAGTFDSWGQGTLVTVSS
VL: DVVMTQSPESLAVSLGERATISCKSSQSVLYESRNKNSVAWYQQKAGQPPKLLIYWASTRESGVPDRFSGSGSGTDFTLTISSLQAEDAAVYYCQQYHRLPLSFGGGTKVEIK

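The starting antibody came from a phage panning campaign against this peptide. Variants in AAYL49 differ from the parent at up to three CDR positions; double and triple changes were sampled at random. AlphaSeq pools MATa yeast showing the antibodies with MATalpha yeast showing the peptide. Binding brings cells together so that they mate, and sequencing counts the barcode pairs among the diploids. A regression on co-assayed BCL2-family reference pairs converts the normalised counts of each replicate to an apparent Kd. Mating was done three times.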

Substitutions are numbered in sequence along the VH above, starting at 1 (not Kabat). Numbers give log10(Kd / nM), so 0 is 1 nM and 3 is 1 µM. Smaller is tighter. "n.d." marks a missing value. The strain was present, yet no cells mated with the target were sequenced in that replicate, which points to weak or no binding. Empty control strains, which show no peptide, gave a signal in 15% of pairings with library AAYL49; the median was 4.06 and 95% of these signals were weaker than 2.83. No background was subtracted. The control count says in how many pairings with the empty strains this scFv gave a signal, with their mean in brackets. For reference, the parent read 0.65 as the reference entry and 4.11 (one replicate of three) as a member of this library.

{"changes": "G61K G103H", "log10 Kd (nM) by replicate": "n.d. / 4.12 / n.d.", "signal with controls": "0 of 9"}
{"changes": "R57T G103I D106E", "log10 Kd (nM) by replicate": "n.d. / n.d. / n.d.", "signal with controls": "1 of 9 (4.63)"}
{"changes": "T28G Y52C F105Y", "log10 Kd (nM) by replicate": "n.d. / n.d. / n.d.", "signal with controls": "0 of 9"}
{"changes": "I51A V64A G103L", "log10 Kd (nM) by replicate": "n.d. / n.d. / n.d.", "signal with controls": "0 of 9"}
{"changes": "G99M", "log10 Kd (nM) by replicate": "n.d. / n.d. / n.d.", "signal with controls": "0 of 9"}
{"changes": "T28I L29Y S31K", "log10 Kd (nM) by replicate": "n.d. / 4.80 / n.d.", "signal with controls": "1 of 9 (5.28)"}
{"changes": "L29P R56A T104W", "log10 Kd (nM) by replicate": "n.d. / 4.29 / 5.09", "signal with controls": "7 of 9 (4.33)"}
{"changes": "I34M D54W S63M", "log10 Kd (nM) by replicate": "n.d. / n.d. / n.d.", "signal with controls": "0 of 9"}
{"changes": "L29G G33A R56T", "log10 Kd (nM) by replicate": "n.d. / 3.26 / 5.41", "signal with controls": "3 of 9 (3.36)"}
{"changes": "Y32Q F59K Y60H", "log10 Kd (nM) by replicate": "n.d. / n.d. / n.d.", "signal with controls": "1 of 9 (4.13)"}
{"changes": "G26K G61Y", "log10 Kd (nM) by replicate": "n.d. / n.d. / n.d.", "signal with controls": "0 of 9"}
{"changes": "T28A G99L", "log10 Kd (nM) by replicate": "n.d. / n.d. / 5.20", "signal with controls": "1 of 9 (3.29)"}
{"changes": "F27V G99D R100L", "log10 Kd (nM) by replicate": "n.d. / 3.50 / n.d.", "signal with controls": "2 of 9 (3.71)"}
{"changes": "N30C V50N S53N", "log10 Kd (nM) by replicate": "n.d. / 3.73 / n.d.", "signal with controls": "2 of 9 (4.38)"}
{"changes": "F27Q G33D V64Y", "log10 Kd (nM) by replicate": "n.d. / n.d. / n.d.", "signal with controls": "3 of 9 (3.69)"}
{"changes": "Y32A D62G R100Q", "log10 Kd (nM) by replicate": "n.d. / n.d. / n.d.", "signal with controls": "0 of 9"}
{"changes": "F27V Y52M S107F", "log10 Kd (nM) by replicate": "n.d. / n.d. / n.d.", "signal with controls": "0 of 9"}
{"changes": "S35E F59H D62N", "log10 Kd (nM) by replicate": "5.23 / 3.28 / n.d.", "signal with controls": "0 of 9"}